Structures can show the parent of a compound that is named as a salt.
Legend:
Assay in all cases: In vitro combination studies, CellTitre-Glo cell viability
MV-4-11 = test system: MV-4-11
OCI-AML-2 = test system: OCI-AML-2
OCT-AML-3 = test system: OCT-AML-3
ML-2 = test system: ML-2
MOLM-13 = test system: MOLM-13
NOMO-1 = test system: NOMO-1
F-36-P = test system: F-36-P
KG-1 = test system: KG-1
HL-60 = test system: HL-60
HNT-34 = test system: HNT-34

SMILES	Synergy analysis for combinations with Compound 1 (MV-4-11)	Synergy analysis for combinations with Compound 1 (OCI-AML-2)	Synergy analysis for combinations with Compound 1 (OCT-AML-3)	Synergy analysis for combinations with Compound 1 (ML-2)	Synergy analysis for combinations with Compound 1 (MOLM-13)	Synergy analysis for combinations with Compound 1 (NOMO-1)	Synergy analysis for combinations with Compound 1 (F-36-P)	Synergy analysis for combinations with Compound 1 (KG-1)	Synergy analysis for combinations with Compound 1 (HL-60)	Synergy analysis for combinations with Compound 1 (HNT-34)
CC(C)C[C@H](NC(=O)[C@H](Cc1ccccc1)NC(=O)c1cnccn1)B(O)O [Bortezomib]	No	No	No	No	–	–	–	–	–	–
Nc1nc(Cl)nc2c1ncn2[C@H]1C[C@H](O)[C@@H](CO)O1 [Cladribine]	–	No	–	No	Yes	No	–	–	–	–
Nc1nc(Cl)nc2c1ncn2[C@@H]1O[C@H](CO)[C@@H](O)[C@@H]1F [Clofarabine]	Yes	–	–	No	–	–	No	No	–	–
Sc1ncnc2nc[nH]c12 [Compound 6-Mercaptopurine, 6-Mercaptopurine]	No	No	No	No	Yes	–	–	No	No	–
COc1cccc2c1C(=O)c1c(O)c3c(c(O)c1C2=O)C[C@@](O)(C(C)=O)C[C@@H]3O[C@H]1C[C@H](N)[C@H](O)[C@H](C)O1 [Daunorubicin]	No	No	No	–	–	–	No	–	No	No
CC(=O)[C@]1(O)Cc2c(O)c3c(c(O)c2[C@@H](O[C@H]2C[C@H](N)[C@H](O)[C@H](C)O2)C1)C(=O)c1ccccc1C3=O [Idarubicin HCl]	–	No	–	–	–	No	No	No	–	–
CN(Cc1cnc2nc(N)nc(N)c2n1)c1ccc(C(=O)N[C@@H](CCC(=O)O)C(=O)O)cc1 [Methotrexate]	–	–	–	–	–	No	–	–	–	–
Nc1nc2nc[nH]c2c(=S)[nH]1 [Thioguanine]	–	–	–	No	–	No	No	No	No	–
CC[C@@]1(O)C(=O)OCc2c1cc1n(c2=O)Cc2cc3c(CN(C)C)c(O)ccc3nc2-1 [Topotecan]	–	–	–	No	–	–	–	No	No	–
